Measured values: patent publication US20050048563A1, “Membrane molecule indicator compositions and methods” (Novasite Pharmaceuticals, Inc, priority 2000, published 2005)

The chains behind the UniProt entries cited, without tags or fusion partners.
UniProt P21452, whole entry: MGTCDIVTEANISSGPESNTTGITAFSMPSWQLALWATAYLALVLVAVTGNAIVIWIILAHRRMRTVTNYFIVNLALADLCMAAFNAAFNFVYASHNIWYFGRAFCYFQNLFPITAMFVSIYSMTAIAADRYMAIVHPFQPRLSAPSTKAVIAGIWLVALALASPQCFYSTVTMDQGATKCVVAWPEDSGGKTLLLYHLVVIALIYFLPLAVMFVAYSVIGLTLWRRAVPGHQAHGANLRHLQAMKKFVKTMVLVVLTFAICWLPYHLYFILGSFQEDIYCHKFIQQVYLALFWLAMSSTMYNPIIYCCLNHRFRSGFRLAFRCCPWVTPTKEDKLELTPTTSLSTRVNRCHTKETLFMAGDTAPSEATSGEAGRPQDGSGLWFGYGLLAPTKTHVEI

Legend:
[1] = tested on: C-terminally truncated mutant human NK2 receptor; settings: prolonged NKA, n=19
[2] = biological target: wild-type human NK2 receptors (Homo sapiens, UniProt P21452)

neurokinin A [NKA]
average 50% recovery time of FRET signal [1]: 1365 ± 599 s | average 50% recovery time of translocation response ([2]; prolonged addition of NKA (1 μM), n=25): 83 ± 38 s | decay time of translocation response ([2]; short (10 s) pulses of agonist from puffer pipette, n=60): 45 ± 7 s
